Reference: patent US8865865B2, “N-terminally modified tetrapeptide derivatives having a C-terminal arginine mimetic” (Philipps-Universitat Marburg, priority 2008, dated 2014)

By UniProt entry, the sequences of proteins in these tests, tags left out. Residues count along the entry.
UniProt P09958, 108-794 limits assumed: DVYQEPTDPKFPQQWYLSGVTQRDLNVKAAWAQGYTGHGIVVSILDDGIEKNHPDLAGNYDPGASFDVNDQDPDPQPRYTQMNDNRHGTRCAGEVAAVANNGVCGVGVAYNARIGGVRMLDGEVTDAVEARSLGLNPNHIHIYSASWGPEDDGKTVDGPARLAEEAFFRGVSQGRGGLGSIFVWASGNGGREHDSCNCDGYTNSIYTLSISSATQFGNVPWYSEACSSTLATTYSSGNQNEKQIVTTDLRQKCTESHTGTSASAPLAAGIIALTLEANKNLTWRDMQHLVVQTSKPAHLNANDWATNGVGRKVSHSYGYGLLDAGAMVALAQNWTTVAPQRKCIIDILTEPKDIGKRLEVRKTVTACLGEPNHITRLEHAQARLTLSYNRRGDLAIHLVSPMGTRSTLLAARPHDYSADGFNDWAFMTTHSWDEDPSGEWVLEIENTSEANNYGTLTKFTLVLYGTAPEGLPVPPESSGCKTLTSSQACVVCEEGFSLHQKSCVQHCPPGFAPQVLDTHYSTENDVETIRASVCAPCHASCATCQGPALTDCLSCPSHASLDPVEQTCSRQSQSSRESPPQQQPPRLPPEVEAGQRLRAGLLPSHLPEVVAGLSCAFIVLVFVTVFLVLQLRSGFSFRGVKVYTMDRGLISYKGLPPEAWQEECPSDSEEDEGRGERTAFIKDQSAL

Biological target: Recombinantly produced human furin (Homo sapiens, UniProt P09958)
Experiment: Enzyme kinetic studies to determine the inhibitory effect on furin (fluorogenic substrate Pyr-Arg-Thr-Lys-Arg-AMC)
Details: read-out: Ki value for the inhibition of furin; Table 2; substrate 12.5 μM, furin approx. 0.95 nM, competitive reversible model; tested form: TFA

Compound | Ki
CC(C)[C@H](NC(=O)[C@H](CCCNC(=N)N)NC(=O)Cc1ccccc1)C(=O)N[C@@H](CCCNC(=N)N)C(=O)NCC1CCN(C(=N)N)CC1 | 68 nM
CC(C)[C@H](NC(=O)[C@H](CCCNC(=N)N)NC(=O)Cc1ccccc1)C(=O)N[C@@H](CCCNC(=N)N)C(=O)NCCCCCNC(=N)N | 1600 nM
